Only a part is listed here, and it is no random draw. Measured potencies and affinities stand elsewhere. The source made the active and inactive calls. Rule as the data show it: active = cytotoxicity above about 50%; inactive = the rest.

The assay can be described thus: cytotoxicity in HPDE-C7 cells, cell-based, fluorescence, HTS (AID 430).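 Also: cells exposed to compound for 48 hours before viability readout; 0% = vehicle and 100% = reference cytotoxic drug.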 The following applies: HPDE-C7 pancreatic duct cells viability, at 10 µM, active compounds read high.
As for `Cc1nn(-c2ccccc2)c2c1P(=O)(N1CCOCC1)N(C)C(c1ccccc1)=N2` (stereo not drawn), the cytotoxicity was inactive: -4.7%.
With `O=P1(Nc2ccc(Br)cn2)COc2ccccc2OC1`, the cytotoxicity is inactive: -21.1%.
For `Cc1ccc(OCC(=O)OC2CN3CCC2CC3)cc1` (stereo not drawn), the cytotoxicity was inactive: -12.6%.
`O=P1(Nc2ncccn2)COc2ccccc2OC1`: the cytotoxicity was inactive: -6.4%.
Turning to `Clc1n[nH]nc1-c1nn[nH][15n]1`, the cytotoxicity was inactive: 2.3%.
With `O=P1(Nc2ccccn2)COc2ccccc2OC1`, the cytotoxicity was inactive: -22.8%.
For `Cc1cccc(OCC(=O)OC2CN3CCC2CC3)c1` (stereo not drawn) the value was inactive: -15.4%; for `CCOP1(=S)c2c(C)nn(CCC#N)c2N=C(c2ccccc2F)N1C` (stereo not drawn), inactive: -11.5%; for `O=P(Nc1nccs1)(c1ccccc1)c1nc2ccccc2s1` (stereo not drawn), inactive: -7.9%.
On to `CCOP1(=S)c2c(C)nn(CCC#N)c2N=C(c2ccc(F)cc2)N1C` (stereo not drawn), for which the cytotoxicity is inactive: 2.8%.
Regarding `O=C(COc1ccccc1)OC1CN2CCC1CC2` (stereo not drawn), the cytotoxicity is inactive: 3.7%.
With `COP1(=S)c2c(C)nn(CCC#N)c2N=C(c2ccc(F)cc2)N1C` (stereo not drawn), the cytotoxicity is inactive: -12.8%.
The same measure for `Cc1c2non([O-])c-2c(C)[n+](=O)[n+]1[O-]`: inactive: 0.9%; for `COC(=O)c1cc2c(s1)N=C(c1ccccc1)N(C)P2(=O)N1CCOCC1` (stereo not drawn): inactive: 1%; for `O=P1(Nc2nc3ccc(Cl)cc3s2)COc2ccccc2O1` (stereo not drawn): inactive: -18.3%.
In the case of `c1nnnn1CCn1cnnn1`, the cytotoxicity was inactive: -27.6%.
The same measure for `O=P(Nc1nccs1)(c1ccccc1)c1ccccc1`: inactive: 14.7%.
The same measure for `O=C(OC1CN2CCC1CC2)c1cccc(Cl)c1` (stereo not drawn): inactive: -12.7%.

The record behind these values is PubChem BioAssay AID430 (Sanford-Burnham Center for Chemical Genomics, 2006).
